Structures can show the parent of a compound that is named as a salt.
Assays:
Assay type in all cases: in vivo
Pharmacokinetics in dogs = conditions: Beagle, dog, blood, iv, 1 mg/kg
[1] = Pharmacokinetics in Rhesus monkeys
[2] = Phase I pharmacokinetics, single PO dose; conditions: human, blood, 4 mg

`Cc1ccc2c(c1)c1c(n2CCc2ccccc2)CCN(C)C1` [AVN-101, 2,8-dimethyl-5-penethyl-2,3,4,5-tetra-hydro-1h-pyrido[[4,3-B]]indole hydrochloride] showed an AUC (Pharmacokinetics in dogs) of 2.29 ng·h/mL, a Tmax ([1]; Mean, PO 10 mg/kg) of 2 h and a Tmax ([1]; monkey 35189, PO 10 mg/kg) of 2 h. It also gave a Tmax ([1]; rhesus monkey, in vivo, iv, 2 mg/kg) of 0.0167 h, a Tmax ([1]; rhesus monkey, in vivo, po, 10 mg/kg) of 2 h and a Cmax [2] of 0.0229 ± 0.0164 ng/mL.

— paper PMC4969713 (Journal of Alzheimer's Disease, 2016)
